Results: US9815846B2 (Merck Sharp & Dohme Corp., priority 2014, dated 2017)

Protein sequences, listed by entry. Tags and fused reporters are not part of them. Residues count along the entry.
UniProt P04629, 33-796: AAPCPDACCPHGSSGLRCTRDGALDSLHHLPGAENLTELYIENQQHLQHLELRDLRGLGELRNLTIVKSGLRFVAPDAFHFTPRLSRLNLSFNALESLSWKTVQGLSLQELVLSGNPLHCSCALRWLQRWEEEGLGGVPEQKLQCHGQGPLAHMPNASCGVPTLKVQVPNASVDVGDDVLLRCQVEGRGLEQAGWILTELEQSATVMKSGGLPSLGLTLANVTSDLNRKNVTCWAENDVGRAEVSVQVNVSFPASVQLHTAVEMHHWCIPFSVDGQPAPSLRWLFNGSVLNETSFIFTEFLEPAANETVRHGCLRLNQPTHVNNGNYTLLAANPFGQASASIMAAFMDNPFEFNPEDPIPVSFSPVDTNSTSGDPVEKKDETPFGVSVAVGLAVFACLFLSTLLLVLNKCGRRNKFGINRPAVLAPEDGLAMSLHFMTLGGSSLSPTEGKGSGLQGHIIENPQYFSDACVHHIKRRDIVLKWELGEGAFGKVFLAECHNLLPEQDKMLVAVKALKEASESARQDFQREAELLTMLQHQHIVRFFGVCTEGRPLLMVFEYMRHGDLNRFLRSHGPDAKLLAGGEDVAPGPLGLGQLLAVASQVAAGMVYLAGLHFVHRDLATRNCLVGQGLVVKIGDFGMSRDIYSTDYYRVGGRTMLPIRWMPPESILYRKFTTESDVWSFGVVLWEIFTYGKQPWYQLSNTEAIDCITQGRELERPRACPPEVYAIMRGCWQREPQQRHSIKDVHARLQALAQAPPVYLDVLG

Molecular target: human TrkA receptor (Homo sapiens (Human), UniProt P04629)
Test: DiscoverX PathHunter TrkA functional assay (NGF-stimulated U2OS cells)
Type: cell-based
Settings: U2OS cells expressing human TrkA-PK, Shc1-EA and p75NTR; compound 1 h, then NGF at ~80% of maximal response for 3 h; luminescence

IC50 [nM]	Structure (SMILES)
0.51	Cn1ccc(-c2cc(C(=O)Nc3ccc(C4CCC(=O)N4)nc3-c3ccccc3)ccc2C(F)(F)F)n1 (single isomer, unassigned) [Example 189, (R or S)-3-(1-Methyl-1H-pyrazol-3-yl)-N-(6-(5-oxopyrrolidin-2-yl)-2-phenylpyridin-3-yl)-4-(trifluoromethyl)benzamide]
11	CS(=N)(=O)c1ccc(-c2cnc(-c3ccccc3)c(NC(=O)c3cc(-c4cc[nH]n4)c(C(F)(F)F)cc3F)c2)cc1 (single isomer, unassigned) [Example 217, (R or S)-2-Fluoro-N-(5-(4-(S-methylsulfonimidoyl)phenyl)-2-phenylpyridin-3-yl)-5-(1H-pyrazol-3-yl)-4-(trifluoromethyl)benzamide]
